Experimental data: patent publication US12331032B2, “Quinone reductase 2 inhibitor compounds and uses thereof” (DUKE UNIVERSITY, priority 2018, dated 2025)

The chains behind the UniProt entries cited, without tags or fusion partners. Where a name states a change or a piece, a line headed by the entry shows the natural chain unless it says otherwise.
UniProt P08183, whole entry: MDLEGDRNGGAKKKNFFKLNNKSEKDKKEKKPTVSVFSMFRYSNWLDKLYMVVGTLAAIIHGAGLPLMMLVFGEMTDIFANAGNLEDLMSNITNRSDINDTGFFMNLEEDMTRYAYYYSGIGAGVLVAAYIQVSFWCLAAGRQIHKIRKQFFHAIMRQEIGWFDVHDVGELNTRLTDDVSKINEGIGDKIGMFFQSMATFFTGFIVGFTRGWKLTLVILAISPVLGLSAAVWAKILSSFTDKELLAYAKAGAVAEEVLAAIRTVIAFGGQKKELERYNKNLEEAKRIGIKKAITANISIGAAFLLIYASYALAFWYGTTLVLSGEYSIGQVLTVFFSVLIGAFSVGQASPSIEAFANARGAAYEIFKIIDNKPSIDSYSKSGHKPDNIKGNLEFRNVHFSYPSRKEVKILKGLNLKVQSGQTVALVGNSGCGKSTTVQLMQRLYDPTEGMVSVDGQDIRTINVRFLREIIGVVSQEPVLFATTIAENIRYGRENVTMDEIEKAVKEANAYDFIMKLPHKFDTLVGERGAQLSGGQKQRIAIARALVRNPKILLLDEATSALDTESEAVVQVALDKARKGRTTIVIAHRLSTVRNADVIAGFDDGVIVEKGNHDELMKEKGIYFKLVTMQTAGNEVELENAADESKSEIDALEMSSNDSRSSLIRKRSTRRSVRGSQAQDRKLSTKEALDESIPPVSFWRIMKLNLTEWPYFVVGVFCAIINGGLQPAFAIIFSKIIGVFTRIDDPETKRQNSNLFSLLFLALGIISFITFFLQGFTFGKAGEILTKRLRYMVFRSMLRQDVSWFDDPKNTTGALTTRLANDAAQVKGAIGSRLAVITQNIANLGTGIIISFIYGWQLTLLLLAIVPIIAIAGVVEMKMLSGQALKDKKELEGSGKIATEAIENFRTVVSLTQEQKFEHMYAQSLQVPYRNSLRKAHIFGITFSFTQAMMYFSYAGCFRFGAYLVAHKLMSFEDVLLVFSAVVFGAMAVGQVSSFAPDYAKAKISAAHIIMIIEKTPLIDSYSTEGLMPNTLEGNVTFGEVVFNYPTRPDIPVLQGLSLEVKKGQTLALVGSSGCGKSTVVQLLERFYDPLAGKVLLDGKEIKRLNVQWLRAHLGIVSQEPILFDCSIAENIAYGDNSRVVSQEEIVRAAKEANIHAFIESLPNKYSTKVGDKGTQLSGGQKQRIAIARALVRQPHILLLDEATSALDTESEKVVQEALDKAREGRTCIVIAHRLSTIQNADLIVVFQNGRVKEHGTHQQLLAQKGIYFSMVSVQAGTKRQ
UniProt Q12809: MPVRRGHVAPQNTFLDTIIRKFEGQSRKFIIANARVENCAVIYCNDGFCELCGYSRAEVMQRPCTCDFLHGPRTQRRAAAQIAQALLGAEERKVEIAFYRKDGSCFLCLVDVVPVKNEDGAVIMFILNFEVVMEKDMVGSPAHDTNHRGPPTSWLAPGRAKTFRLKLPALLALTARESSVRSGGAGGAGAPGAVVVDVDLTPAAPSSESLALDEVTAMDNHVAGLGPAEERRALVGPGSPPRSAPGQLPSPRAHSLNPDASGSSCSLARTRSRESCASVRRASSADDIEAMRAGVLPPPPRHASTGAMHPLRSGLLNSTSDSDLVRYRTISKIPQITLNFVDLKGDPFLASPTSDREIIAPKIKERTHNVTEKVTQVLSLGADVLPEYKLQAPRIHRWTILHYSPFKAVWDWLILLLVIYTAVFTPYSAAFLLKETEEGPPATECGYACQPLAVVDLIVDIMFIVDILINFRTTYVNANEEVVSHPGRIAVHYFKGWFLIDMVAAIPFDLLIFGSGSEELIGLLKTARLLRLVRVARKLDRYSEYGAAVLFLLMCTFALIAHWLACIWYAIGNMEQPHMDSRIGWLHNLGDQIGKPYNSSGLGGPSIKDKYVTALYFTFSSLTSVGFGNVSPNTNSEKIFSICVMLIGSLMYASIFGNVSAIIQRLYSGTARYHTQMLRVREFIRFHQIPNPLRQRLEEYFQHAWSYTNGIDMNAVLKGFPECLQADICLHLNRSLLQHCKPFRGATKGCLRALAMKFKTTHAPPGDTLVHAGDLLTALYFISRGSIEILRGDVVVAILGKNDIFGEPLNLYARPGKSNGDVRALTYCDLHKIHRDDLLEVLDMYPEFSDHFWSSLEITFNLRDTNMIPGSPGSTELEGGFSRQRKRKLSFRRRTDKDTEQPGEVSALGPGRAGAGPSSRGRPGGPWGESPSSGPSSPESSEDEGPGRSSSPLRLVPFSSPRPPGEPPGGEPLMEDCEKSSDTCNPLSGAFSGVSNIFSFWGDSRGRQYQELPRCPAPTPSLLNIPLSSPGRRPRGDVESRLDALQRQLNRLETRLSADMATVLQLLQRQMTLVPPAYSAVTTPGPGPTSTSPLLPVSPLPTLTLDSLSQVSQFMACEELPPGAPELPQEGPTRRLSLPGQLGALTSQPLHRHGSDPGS

How the values were obtained:
[1] = modified Ames assay
[2] = test system: human hepatocyte; experiment: human hepatocyte stability; details: human hepatocytes, at 1 hour
[3] = human plasma protein binding by ultracentrifugation
[4] = test system: mouse hepatocyte; experiment: mouse hepatocyte stability; details: mouse hepatocytes, at 1 hour
[5] = mouse plasma protein binding by ultracentrifugation
[6] = target: P-glycoprotein (Homo sapiens, UniProt P08183); details: not told
[7] = target: hERG ion channel (Homo sapiens, UniProt Q12809); experiment: hERG ion channel inhibition

## 7-methoxy-4-(pyridin-3-yl) methylaminoquinoline [QR2I-44]
[1]
  mutagenicity: not mutagenic
[2]
  hepatocyte stability, remaining: > 90%
[3]
  plasma protein binding, bound: 50-70%
[4]
  hepatocyte stability, remaining: > 90%
[5]
  plasma protein binding, bound: 50-70%
[6]
  P-glycoprotein substrate or inhibitor: not a P-glycoprotein substrate or inhibitor
[7]
  IC50: > 10 µM
